According to publication PMC8838991, “Exploring the Synergistic Anticancer Potential of Benzofuran–Oxadiazoles and Triazoles: Improved Ultrasound- and Microwave-Assisted Synthesis, Molecular Docking, Hemolytic, Thrombolytic and Anticancer Evaluation of Furan-Based Molecules” (Molecules, 2022):

What was measured:
[1] = test system: red blood cells (RBCs); assay: Hemolysis assay; conditions: sample solution in DMSO, 37 °C, 60 min, ABTS positive control, triplicate
[2] = test system: A549 lung cancer cell line; assay: MTT assay, cell viability; assay type: cell-based, human
Protocol: The A549 cell line was treated with synthesized compounds in a final concentration of DMSO (dimethyl sulfoxide) of less than 1%.
The cytotoxic therapeutic potential of synthesized structural hybrids was evaluated usinga standard MTT (3-(4,5-dimethylthiazol-2-yl)-2,5-diphenyltetrazolium bromide) assay. The cells of theA549 cell line were grown, overnight, in a microculture of 96-well plates. […] Following this, 150 μL of control DMSO was added to formazan crystals.The percentage of cell viability was determined viaquantified absorbance in a microplate readerat 490 nm wavelength.

CCn1c(=NN=c2sc3cc(S(=O)(=O)O)ccc3n2CC)sc2cc(S(=O)(=O)O)ccc21 [ABTS, reference compound]
Percentage Hemolysis ± SD [1]: 95.9%

C[C@@H](Oc1cc(-c2cnn(C3CCNCC3)c2)cnc1N)c1c(Cl)ccc(F)c1Cl [Crizotinib, crizotinib, reference compound]
Percentage Cell viability A549 (Lung Cancer) ± SD ([2]; A549, 48 h, MTT, mean ± SD in triplicate): 28.22 ± 3.88% | anticancer activity of reference drugs as quoted in SAR text ([2]; A549, MTT, values quoted for comparison): 28.22 ± 3.88 µM
